For orientation: IC50 means the concentration needed to halve the response being measured. Low values mean higher potency, high ones lower potency.

Sequences of proteins named here, by UniProt entry; tags and fusion partners are left off. A change or cut given only in a name is not applied to a line headed by its entry.
UniProt Q12809: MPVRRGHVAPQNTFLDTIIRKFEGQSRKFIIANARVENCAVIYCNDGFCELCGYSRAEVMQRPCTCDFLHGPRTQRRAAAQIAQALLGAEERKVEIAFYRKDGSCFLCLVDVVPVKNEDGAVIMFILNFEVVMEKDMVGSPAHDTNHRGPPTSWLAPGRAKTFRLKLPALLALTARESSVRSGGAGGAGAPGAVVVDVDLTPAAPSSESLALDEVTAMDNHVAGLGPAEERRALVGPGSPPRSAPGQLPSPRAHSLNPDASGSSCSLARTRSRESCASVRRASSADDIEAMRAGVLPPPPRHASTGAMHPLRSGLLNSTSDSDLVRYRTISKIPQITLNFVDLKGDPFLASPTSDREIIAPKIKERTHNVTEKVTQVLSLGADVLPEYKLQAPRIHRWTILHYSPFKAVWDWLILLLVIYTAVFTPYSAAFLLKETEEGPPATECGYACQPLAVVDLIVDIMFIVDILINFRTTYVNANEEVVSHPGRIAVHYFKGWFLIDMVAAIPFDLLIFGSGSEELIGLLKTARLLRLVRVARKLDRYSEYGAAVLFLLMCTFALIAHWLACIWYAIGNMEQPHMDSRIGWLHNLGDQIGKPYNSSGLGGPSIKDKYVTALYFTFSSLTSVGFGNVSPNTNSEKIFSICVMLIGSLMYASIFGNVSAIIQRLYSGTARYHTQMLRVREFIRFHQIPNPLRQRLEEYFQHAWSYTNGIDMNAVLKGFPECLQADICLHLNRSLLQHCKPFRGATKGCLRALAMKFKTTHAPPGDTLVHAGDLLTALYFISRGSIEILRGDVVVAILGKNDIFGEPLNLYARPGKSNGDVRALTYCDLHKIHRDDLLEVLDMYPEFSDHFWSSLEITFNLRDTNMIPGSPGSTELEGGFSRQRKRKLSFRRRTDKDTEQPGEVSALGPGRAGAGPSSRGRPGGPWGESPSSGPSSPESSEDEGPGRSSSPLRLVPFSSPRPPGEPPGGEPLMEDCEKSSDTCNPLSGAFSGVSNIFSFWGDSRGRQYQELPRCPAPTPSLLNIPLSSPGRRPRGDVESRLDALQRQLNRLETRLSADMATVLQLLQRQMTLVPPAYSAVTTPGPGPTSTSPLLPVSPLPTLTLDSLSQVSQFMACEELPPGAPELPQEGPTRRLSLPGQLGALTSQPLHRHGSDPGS

Experimental findings from ChEMBL document CHEMBL1158373, “GRIND-based 3D-QSAR and CoMFA to investigate topics dominated by hydrophobic interactions: the case of hERG K+ channel blockers” (Eur J Med Chem, 2009) are described below.

In the assay the target is Voltage-gated inwardly rectifying potassium channel KCNH2 (Homo sapiens, UniProt Q12809).

For `CC(C)COCC(CN(Cc1ccccc1)c1ccccc1)N1CCCC1` (configuration not stated) [BEPRIDIL], 0.55 µM corresponded to half-maximal inhibition (IC50). As for `C1CCC(C(CC2CCCCN2)C2CCCCC2)CC1` (configuration not stated) [PERHEXILINE], it took 7.76 µM to reach half-maximal inhibition (IC50).
